# In patent US11912693B2, “Compounds for modulating S1P1 activity and methods of using the same” (TREVENA, INC., priority 2017, dated 2024):
# Protein sequences, listed by entry. Tags and fused reporters are not part of them. Lines headed by an entry give the natural chain unless they say otherwise; changes in a name come on top.
# UniProt P21453, whole entry, looked up: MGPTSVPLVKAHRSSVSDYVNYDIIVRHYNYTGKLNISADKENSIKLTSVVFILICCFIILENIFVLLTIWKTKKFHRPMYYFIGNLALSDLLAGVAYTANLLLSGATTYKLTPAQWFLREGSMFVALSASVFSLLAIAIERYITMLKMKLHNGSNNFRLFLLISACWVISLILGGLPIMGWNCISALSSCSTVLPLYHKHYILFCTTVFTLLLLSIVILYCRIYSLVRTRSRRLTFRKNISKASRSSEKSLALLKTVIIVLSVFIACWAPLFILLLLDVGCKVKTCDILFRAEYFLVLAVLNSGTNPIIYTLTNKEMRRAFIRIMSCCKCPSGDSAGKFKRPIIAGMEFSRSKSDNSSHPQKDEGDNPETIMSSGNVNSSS
# UniProt Q9H228: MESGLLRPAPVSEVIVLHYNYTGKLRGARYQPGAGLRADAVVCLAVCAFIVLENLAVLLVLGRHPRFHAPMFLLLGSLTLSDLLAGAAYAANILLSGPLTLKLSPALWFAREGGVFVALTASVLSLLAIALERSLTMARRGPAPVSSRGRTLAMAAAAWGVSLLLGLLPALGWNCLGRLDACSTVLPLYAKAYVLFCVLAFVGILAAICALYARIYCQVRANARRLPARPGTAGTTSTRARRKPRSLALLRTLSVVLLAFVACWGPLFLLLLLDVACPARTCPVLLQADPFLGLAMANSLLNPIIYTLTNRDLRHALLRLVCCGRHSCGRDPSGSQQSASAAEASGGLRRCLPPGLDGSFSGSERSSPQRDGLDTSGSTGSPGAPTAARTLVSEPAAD
# UniProt Q99500: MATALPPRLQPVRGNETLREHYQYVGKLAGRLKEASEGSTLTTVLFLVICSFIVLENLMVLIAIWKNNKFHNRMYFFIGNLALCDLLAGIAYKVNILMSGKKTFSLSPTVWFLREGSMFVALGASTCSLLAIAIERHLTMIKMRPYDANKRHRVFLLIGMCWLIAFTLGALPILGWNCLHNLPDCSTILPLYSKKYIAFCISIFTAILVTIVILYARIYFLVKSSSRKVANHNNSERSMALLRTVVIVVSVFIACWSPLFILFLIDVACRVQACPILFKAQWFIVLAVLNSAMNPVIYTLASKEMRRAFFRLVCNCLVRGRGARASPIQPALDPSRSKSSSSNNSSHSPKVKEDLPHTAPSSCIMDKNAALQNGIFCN
# UniProt O95136: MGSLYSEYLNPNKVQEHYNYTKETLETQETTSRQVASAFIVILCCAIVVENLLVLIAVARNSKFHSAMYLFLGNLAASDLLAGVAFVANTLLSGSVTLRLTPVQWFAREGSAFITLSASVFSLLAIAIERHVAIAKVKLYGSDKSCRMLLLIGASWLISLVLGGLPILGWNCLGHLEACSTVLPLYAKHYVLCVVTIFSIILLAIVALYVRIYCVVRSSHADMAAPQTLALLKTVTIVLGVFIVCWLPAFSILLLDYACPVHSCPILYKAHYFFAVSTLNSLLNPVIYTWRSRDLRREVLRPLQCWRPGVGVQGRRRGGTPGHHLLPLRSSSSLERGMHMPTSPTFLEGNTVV
# Tests used:
# Assay type in all cases: cell-based
# [1] = target: T1, human sphingosine-1-phosphate receptor 1 (S1P1) (Homo sapiens (Human), UniProt P21453); experiment: β-Arrestin2 recruitment assay (PathHunter), S1P1 CHO-K1 cells
# Method: (§1) Stable clonal Chinese hamster ovary K1 (CHO-K1) cells co-expressing EA-β-arrestin2 and the human sphingosine-1-phosphate receptor 1 (NM_001400, S1P1) with a C-terminal Prolink™ tag were purchased from DiscoverX corporation (Cat #: 93-0207C2).
# (§2) Cell lines were cultured in AssayComplete™ Media 6 (DiscoverX Corporation, Cat #: 920018GF2) at 37° C. and 5% CO2 in a humidified CO2 and temperature-controlled incubator. To begin assay plating, cells were washed with dulbecco's phosphate buffered saline (CellGro, Cat #: 21-031-CV) and lifted from the culturing flask by incubation (37° C., 5 min) with CellStripper (Cellgro, Cat #: 25-056-CI). Lifted cells were resuspended to 250,000 cells per milliliter in AssayComplete™ Cell Plating 11 Reagent (DiscoverX Corporation, Cat #: 93-0563R11B) and plated at 5,000 cells per well in white-opaque 384 well plates (Greiner Bio-One Item #: 20-784080). Plated cells were incubated overnight at 37° C. and 5% CO2 in a humidified CO2 and temperature-controlled incubator. Detecting Inhibition of cAMP Production
# Agonist-promoted β-arrestin2 recruitment to the sphingosine-1-phosphate 1 receptor was determined using the β-arrestin PathHunter®) Detection kit (DiscoverX Corporation, Cat #: 93-0001). […] After an hour incubation at room temperature, plates were analyzed by a BMG PheraStar microplate reader. […]
# [2] = target: T1, human sphingosine-1-phosphate receptor 1 (S1P1); experiment: Inhibition of cAMP production (HTRF cAMP HiRange), S1P1 CHO-K1 cells
# Method: as §1
# as §2, with “Plated cells were incubated overnight at 37° C. and 5% CO2 in a humidified CO2 and temperature-controlled incubator. Detecting Inhibition of cAMP Production” left out
# Agonist-promoted G-protein responses were determined by measuring changes in intracellular cAMP using the HTRF® cAMP HiRange kit (CisBio, Cat #: 62AM6PEJ) based on time-resolved fluorescence resonance energy transfer (TR-FRET) technology. […] After an hour incubation at room temperature, plates were analyzed by a BMG PheraStar microplate reader. Responses were measured as the ratio of fluorescence emission at 665 nm to fluorescence emission at 620 nm. […]
# [3] = target: sphingosine-1-phosphate receptor 5 (S1P5) (Homo sapiens (Human), UniProt Q9H228); experiment: Inhibition of cAMP production (HTRF), S1P5 CHO-K1 cells
# [4] = target: human sphingosine-1-phosphate receptor 3 (S1P3) (Homo sapiens (Human), UniProt Q99500); experiment: Inhibition of cAMP production (HTRF), S1P3 CHO-K1 cells
# [5] = target: human sphingosine-1-phosphate receptor 2 (S1P2) (Homo sapiens (Human), UniProt O95136); experiment: Inositol monophosphate production (IP-one TB kit), S1P2 CHO-K1 cells
compound,measurement,setting,value
"CC(C)Oc1ccc(-c2nc(-c3ccc4c(c3)nnn4C(C)C)no2)cc1C#N [Compound 22, 2-isopropoxy-5-(3-(1-isopropyl-1H-benzo[d][1,2,3]triazol-5-yl)-1,2,4-oxadiazol-5-yl)benzonitrile]",Emax,"[1]; CHO-K1, read-out: hS1P1 B-arrestin2 SPAN",> 75%
same,hS1P1 B-arrestin2 pEC50,"[1]; β-arrestin2 recruitment, S1P1 CHO-K1 cells",>5
same,Emax,"[2]; CHO-K1, read-out: hS1P1 cAMP SPAN",> 75%
same,hS1P1 cAMP pEC50,"[2]; inhibition of cAMP production, S1P1 CHO-K1 cells",>6.5
same,Emax,"[3]; CHO-K1, efficacy normalized to fingolimod, read-out: hS1P5 cAMP SPAN",< 50%
same,hS1P5 cAMP pEC50,"[3]; inhibition of cAMP production, hS1P5",>5.0
same,Emax,"[4]; CHO-K1, efficacy normalized to fingolimod, read-out: hS1P3 cAMP SPAN",< 50%
same,hS1P3 cAMP pEC50,"[4]; inhibition of cAMP production, hS1P3",<5.0
same,Emax,"[5]; CHO-K1, read-out: hS1P2 IP-one SPAN",< 50%
same,hS1P2 IP-one pEC50,"[5]; inositol monophosphate accumulation, hS1P2",>5.0
